# AlphaSeq binding of Ab-95 light chain variants to a spike HR2 peptide

Target: peptide PDVDLGDISGINAS, taken from heptad repeat 2 (HR2) of SARS-CoV-2 spike.

The variants keep the heavy chain, the linker and the frameworks of Ab-95 (scFv order VH, a 15-residue (Gly4Ser)3 linker, VL).
VH: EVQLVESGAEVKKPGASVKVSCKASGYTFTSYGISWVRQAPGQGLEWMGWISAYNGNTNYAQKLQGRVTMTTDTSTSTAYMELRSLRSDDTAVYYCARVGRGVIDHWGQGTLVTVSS
VL: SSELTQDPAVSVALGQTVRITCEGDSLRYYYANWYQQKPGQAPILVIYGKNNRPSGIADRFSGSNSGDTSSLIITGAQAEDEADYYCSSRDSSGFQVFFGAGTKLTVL

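The parent was found by panning a naive human phage display library on the peptide. Variants in AAYL52 differ from the parent at up to three CDR positions; double and triple changes were sampled at random. Affinity was read by AlphaSeq, a pooled yeast mating assay with surface-displayed partners. Mating (16 h, 30 °C) was followed by selection of diploids and sequencing of their barcodes. Scores were corrected for input abundance and mapped to Kd with protein pairs of known affinity run in the same pool. The assay was run in three technical replicates.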

Positions count from residue 1 of the parent VL; E23N puts N in place of E.
All variants listed here change P54 of the VL, counted from its first residue.
Affinities are written as log10 Kd with Kd in nM; a lower number is a better binder.
"ND" marks a missing value. The strain was present, yet no cells mated with the target were sequenced in that replicate, which points to weak or no binding.
Three control strains display no target. For library AAYL52, 28% of the pairings with them gave a signal, with a median of 3.91 and one signal in twenty below 2.90, so weak values seen in few replicates may be background.
Parent in this assay: reference entry 2.31, copy in this library 2.25.

changes	log10 Kd, replicates
E23N P54H R90D	ND / 4.11 / ND
R53Q P54H G94E	3.48 / 3.99 / 3.65
R28E P54A	1.99 / 1.90 / 1.31
P54Y S89H Q96G	ND / 4.13 / 3.71
Y31E P54V S92M	1.70 / 1.49 / 1.27
G24I P54E V97A	ND / ND / ND
P54H S89L F98C	4.42 / 5.60 / ND
D25W N33Q P54H	3.93 / 5.02 / ND
Y30G P54N F98W	1.42 / 1.22 / 1.10
N52T P54M F95H	2.82 / 2.71 / 2.71
P54D D91W Q96Y	3.83 / 4.08 / 2.53
D25E P54R Q96Y	ND / ND / ND

Top 2 of the variants detected in all replicates, tightest first:

changes	log10 Kd, replicates
Y30G P54N F98W	1.42 / 1.22 / 1.10
Y31E P54V S92M	1.70 / 1.49 / 1.27

From the AlphaSeq antibody data of Engelhart et al. 2022 (doi:10.1038/s41597-022-01779-4), copy in the FLAb collection.